Assay results published in patent publication US12084462B2, “Spiro bicyclic inhibitors of menin-MLL interaction” (Janssen Pharmaceutica NV, priority 2016, dated 2024).

Amino acid sequences for entries named in this document (tags omitted). Chains listed by the source or under a name are the forms on record and can include a tag or linker. Residues count along the entry.
UniProt O00255, 1-610 with tags or gaps T541A: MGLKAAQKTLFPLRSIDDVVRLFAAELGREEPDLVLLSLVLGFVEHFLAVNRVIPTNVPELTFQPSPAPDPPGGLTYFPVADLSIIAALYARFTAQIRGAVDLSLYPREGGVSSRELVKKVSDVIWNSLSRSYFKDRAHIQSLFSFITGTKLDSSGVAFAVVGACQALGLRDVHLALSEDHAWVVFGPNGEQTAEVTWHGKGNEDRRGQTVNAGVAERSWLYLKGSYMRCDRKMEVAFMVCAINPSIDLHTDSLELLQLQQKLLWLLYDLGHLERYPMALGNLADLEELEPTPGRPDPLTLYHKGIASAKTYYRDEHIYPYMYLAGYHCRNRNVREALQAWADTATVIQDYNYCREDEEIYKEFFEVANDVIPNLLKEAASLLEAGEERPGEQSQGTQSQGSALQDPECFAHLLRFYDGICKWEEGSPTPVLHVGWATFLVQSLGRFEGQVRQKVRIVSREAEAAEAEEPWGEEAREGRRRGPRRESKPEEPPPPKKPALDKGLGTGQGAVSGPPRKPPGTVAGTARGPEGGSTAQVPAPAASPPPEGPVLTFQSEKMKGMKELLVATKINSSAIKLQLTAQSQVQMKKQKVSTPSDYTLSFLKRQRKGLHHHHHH

Columns and labels:
[1] = test system: MV-4-11; experiment: Proliferation assay (spheroid assay) MV-4-11; conditions: read-out: Spheroid assay MV-4-11 (IC50 (μM)), averaged values
Procedure: (§1) The anti-proliferative effect of menin/MLL protein/protein interaction inhibitor test compounds was assessed in human leukemia cell lines. The cell lines MV-4-11 and MOLM14 harbor MLL translocations and express the MLL fusion proteins MLL-AF4 and MLL-AF9, respectively, as well as the wildtype protein from the second allele. […] K562 and KG1 were used as a control cell lines containing two MLL wildtype alleles in order to exclude compounds that display general cytotoxic effects.
(§2) MV-4-11 and MOLM14 were cultured in RPMI-1640 (Sigma Aldrich) supplemented with 10% fetal bovine serum (HyClone), 2 mM L-glutamine (Sigma Aldrich) and 50 μg/ml gentamycin (Gibco). K562 were propagated in RPMI-1640 (Sigma Aldrich) supplemented with 20% fetal bovine serum (HyClone), 2 mM L-glutamine (Sigma Aldrich) and 50 μg/ml gentamycin (Gibco). KG1 were cultured in Iscove's MDM (Gibco) supplemented with 20% fetal bovine serum (HyClone), 2 mM L-glutamine (Sigma Aldrich) and 50 μg/ml gentamycin (Gibco).
(§3) In order to assess the anti-proliferative effects, 1,500 MV-4-11, 300 MOLM14, 750 K562 or 1,300 KG1 cells were seeded in 200 μl media per well in 96-well round bottom, ultra-low attachment plates (Costar, catalogue number 7007). Cell seeding numbers were chosen based on growth curves to ensure linear growth throughout the experiment. Test compounds were added at different concentrations and the DMSO content was normalized to 0.3%. Cells were incubated for 8 d at 37° C. and 5% CO2. Spheroid like growth was monitored in real-time by live-cell imaging (IncuCyteZOOM, Essenbio, 4× objective) acquiring one image every four hours for 8 d. Confluence (%) as a measure of spheroid size was determined using an integrated analysis tool.
In order to determine the cumulative effect of the test compounds over time, the area under the curve (AUC) in a plot of confluence against time was calculated. Confluence at the beginning of the experiment (t=0) was used as baseline for the AUC calculation.
Absolute IC50 values were calculated according to the following procedure: % Control=(AUC sample/AUC control)*100 AUC control=mean AUC of control values (cells without compound/DMSO as vehicle control)
A non-linear curve fit was applied using the least squares (ordinary) fit method to the plot of % control versus compound concentration. Based on this, the absolute IC50 value (half maximal inhibitory concentration of the test compound causing an anti-proliferative effect of 50% relative to the vehicle control) was calculated.

[2] = test system: MOLM14; experiment: Proliferation assay (spheroid assay) MOLM14; conditions: read-out: Spheroid assay MOLM14 (IC50 (μM)), averaged values
Procedure: as §1, §2, §3
(§4) In order to determine the cumulative effect of the test compounds over time, the area under the curve (AUC) in a plot of confluence against time was calculated. […]
Absolute IC50 values were calculated according to the following procedure: % Control=(AUC sample/AUC control)*100 AUC control=mean AUC of control values (cells without compound/DMSO as vehicle control) […]

[3] = test system: KG1; experiment: Proliferation assay (spheroid assay) KG1, control cell line; conditions: read-out: Spheroid assay KG1 (IC50 (μM)), averaged values
Procedure: as §1
MV-4-11 and MOLM14 were cultured in RPMI-1640 (Sigma Aldrich) supplemented with 10% fetal bovine serum (HyClone), 2 mM L-glutamine (Sigma Aldrich) and 50 μg/ml gentamycin (Gibco). […]
as §3, with “Cell seeding numbers were chosen based on growth curves to ensure linear growth throughout the experiment. Test compounds were added at different concentrations and the DMSO content was normalized to 0.3%. Cells were incubated for 8 d at 37° C. and 5% CO2.” left out
as §4

[4] = molecular target: menin (Homo sapiens, UniProt O00255, T541A); experiment: Menin/MLL fluorescence polarization (FP) assay; conditions: read-out: Menin FP assay (IC50 (μM)); averaged values over all measurements
Procedure: 1) Menin/MLL Fluorescence Polarization Assay
To a non-surface binding, black 384-well microtiter plate was added 50 nL 160× test compound in DMSO and 4 μL 2× menin in assay buffer (40 mM Tris·HCl, pH 7.5, 50 mM NaCl, 1 mM DTT and 0.001% Tween 20). After incubation of test compound and menin for 10 min at ambient temperature, 4 μL 2×FITC-MBM1 peptide (FITC-β-alanine-SARWRFPARPGT-NH2 (SEQ ID NO: 2)) in assay buffer was added, the microtiter plate centrifuged at 1000 rpm for 1 min and the assay mixtures incubated for 15 min at ambient temperature. The relative amount of menin·FITC-MBM1 complex present in an assay mixture is determined by measuring the fluorescence polarization (FP) of the FITC label with a BMG Pherastar plate reader (ex. 485 nm/em. 520 nm) at ambient temperature. The final concentrations of reagents in the binding assay are 100 nM menin, 5 nM FITC-MBM1 peptide and 0.625% DMSO in assay buffer. […]
Compound potencies were determined by first calculating % inhibition at each compound concentration according to equation 1: % inhibition=((HC−LC)−(FP^compound−LC))/(HC−LC))*100 (Eqn 1)
Where LC and HC are the FP values of the assay in the presence or absence of a saturating concentration of a compound that competes with FITC-MBM1 for binding to menin, and FP^compound is the measured FP value in the presence of the test compound. […]

Question: `CC(C)C(Cc1ccc(F)cc1)N1CC2(CCN(c3ncnc4sc(CC(F)(F)F)cc34)C2)C1` (centres unmarked) was tested. Which IC50 [1] did it give?
Answer: Its IC50 is 0.28 µM.

Question: What about the IC50 [2] of the same molecule?
Answer: Its IC50 is 1.5 µM.

Question: What about the IC50 [3] of the same molecule?
Answer: Its IC50 is 10.7 µM.

Question: For `CC(C)CC(C1CNC1)N1CC2(CCN(c3ncnc4sc(CC(F)(F)F)cc34)C2)C1` (centres unmarked), which IC50 [1] is on record?
Answer: Its IC50 is 0.68 µM.

Question: What about the IC50 [2] of the same molecule?
Answer: The IC50 was 3.5 µM.

Question: What about the IC50 [3] of the same molecule?
Answer: The IC50 was 12.5 µM.

Question: For `CC1(CN2CC3(CCN(c4ncnc5sc(CC(F)(F)F)cc45)C3)C2)COC1`, which IC50 [1] is on record?
Answer: Its IC50 is 3.2 µM.

Question: For `CC(C)CN1CCC2(CCN(c3ncnc4sc(CC(F)(F)F)cc34)C2)C1` (single isomer, unassigned), which IC50 [1] is on record?
Answer: The IC50 was 1.4 µM.

Question: What does the source list for `CC(C)C(C1CCOC1)N1CC2(CCN(c3ncnc4sc(CC(F)(F)F)cc34)C2)C1` (centres unmarked)?
Answer: IC50 [1]: 0.74 µM; IC50 [2]: 1.6 µM

Question: `N#CCCn1cc(CN2CC3(CCN(c4ncnc5sc(CC(F)(F)F)cc45)C3)C2)cn1` was tested. Which IC50 [4] did it give?
Answer: Its IC50 is 0.68 µM.
